Assay: Volume of distribution at steady state in CD-1 mouse at 1 mg/kg, iv
Assay type: ADME, organism-based
Conditions: in vivo

Which Vdss does the source give for Cc1nc(Nc2ncc(C(=O)Nc3c(C)csc3Cl)s2)cc(N2CCN(CCO)CC2)n1 here?
Its Vdss is 5.4 L/kg.
